According to patent US7919261B2, “Methods for predicting treatment response based on the expression profiles of protein and transcription biomarkers” (Merck Sharp & Dohme Corp., priority 2006, dated 2011):

Tested on: HuT_78
Test: CellTiter-Blue Cell Viability Assay
Format: cell-based, human
Conditions: HUT78 CTCL cells, 48 h, standard proliferation/viability assay (FIG. 3A)
Experimental: For the proliferation assay, cell lines were seeded on 96-well plates (Corning). After 24 hours of plating, the 96-well plates were treated with vorinostat (SAHA) (0, 0.004-30 uM). The CellTiter-Blue Reagent™ was added to each of the wells. Experiments were performed in triplicate. The plates were then placed at 37° C. for two hours, and subsequently read on the Flex Station II […] from Molecular Devices. The IC50 values were calculated using the Sigma Plot software. Combination index for the studies to test efficacy of Vorinostat and JAK inhibitors was calculated with CalcuSyn software (is there a web site for this or a reference that describes the software)
An expanded set of 50 human cell lines, including the twelve cell lines listed in Table 1, were assembled (Table 2), that represent a range of lymphoid tumor types (including 10 diffuse large B cell lymphoma, 10 Burkitt lymphoma, 8 multiple myeloma and 5 CTCL). As detailed in Example 1, each of these cell lines was cultured in vitro and response to vorinostat was assessed at 8 different concentrations (0 and 0.04 to 30 micromolar) at 24 hr using the ApoONE™ Homogeneous Caspase-3/7 Assay (Promega) and at 24, 48 and 72 h using the CellTiter-Blue™ Cell Viability Assay (Promega). The CellTiter Blue assay was used to determine the vorinostat IC50 for each cell line.

CC(C)(C)c1nc2c3cc[nH]c(=O)c3c3cc(F)ccc3c2[nH]1 [Compound B, 2-tert-butyl-9-fluoro-1,6-dihydro-7H-benzo[h]imidazo[4,5-f]isoquinolin-7-one]
anti-proliferative effect of co-incubation with vorinostat (0.37 μM): synergistic anti-proliferative effect
